According to publication PMC7002685, “Inhibition of vascular calcification by inositol phosphates derivatized with ethylene glycol oligomers” (Nature Communications, 2020):

Tests used:
vascular calcification [1] = assay: Vitamin D3 (s.c.) + high-phosphate diet rat model of VC; assay type: in vivo; conditions: 30 mg/kg s.c. twice daily
Method: Male Sprague-Dawley rats were housed two per cage with free access to water and standard chow and submitted to a 12-h light/dark cycle. Compounds were administered and doses calculated using the salt form. […] Sham groups were injected with 0.9% NaCl instead of vitamin D3. […] Blood samples of 500 µL were collected on day 8 by fine needle from the tail vein and at sacrifice on day 12. […] Serum creatinine, calcium, and phosphorus were measured using standard colorimetric biochemistry analysis (Cobas Mira). Calcium tissue content was measured from dried carotids, whole left kidneys, and abdominal aortas by ICP-MS analysis. […] Images of the rat aortic trees were acquired on a Canon 5D MARKIII (Canon, Tokio, Japan) equipped with a 50 mm lens.
Calcium tissues’ contents were measured at the Central Environmental Laboratory (EPFL, Lausanne, Switzerland). Dry tissues (90 °C, overnight) were weighed and digested by aqua regia overnight at RT, followed by 2 h reflux, after which the solvent was completely evaporated with a steady flow of nitrogen gas. The dried samples were then reconstituted and homogenized with nitric acid. Calcium standards and samples were diluted with nitric acid. Absorbance was recorded using ICP-OES (Shimadzu ICPE-9000, Shimadzu). Two technical replicates were measured for each sample. […] Tissue concentrations of calcium were expressed as mg/g of dry tissue.

vascular calcification [2] = assay: Vitamin D3 (oral) + warfarin diet rat model of VC; conditions: 50 mg/kg

Structure (SMILES): COCCOCCO[C@@H]1[C@@H](OP(=O)(O)O)[C@H](OCCOCCOC)[C@@H](OP(=O)(O)O)[C@@H](OP(=O)(O)O)[C@H]1OP(=O)(O)O [(OEG2)2-IP4, 4,6-Di-O-(methoxy-diethyleneglycol)-myo-inositol-1,2,3,5-tetrakis(phosphate)]
- decrease in abdominal aorta calcification (vascular calcification [1]): not significant
- Serum levels of ionized calcium on day 7 (vascular calcification [2]): 1700 ± 130 µM
